Data reported in ChEMBL document CHEMBL1146967, “The geminal dimethyl analogue of Flurbiprofen as a novel Abeta42 inhibitor and potential Alzheimer's disease modifying agent” (Bioorg Med Chem Lett, 2006).

The chains behind the UniProt entries cited, without tags or fusion partners.
UniProt P23219, whole entry: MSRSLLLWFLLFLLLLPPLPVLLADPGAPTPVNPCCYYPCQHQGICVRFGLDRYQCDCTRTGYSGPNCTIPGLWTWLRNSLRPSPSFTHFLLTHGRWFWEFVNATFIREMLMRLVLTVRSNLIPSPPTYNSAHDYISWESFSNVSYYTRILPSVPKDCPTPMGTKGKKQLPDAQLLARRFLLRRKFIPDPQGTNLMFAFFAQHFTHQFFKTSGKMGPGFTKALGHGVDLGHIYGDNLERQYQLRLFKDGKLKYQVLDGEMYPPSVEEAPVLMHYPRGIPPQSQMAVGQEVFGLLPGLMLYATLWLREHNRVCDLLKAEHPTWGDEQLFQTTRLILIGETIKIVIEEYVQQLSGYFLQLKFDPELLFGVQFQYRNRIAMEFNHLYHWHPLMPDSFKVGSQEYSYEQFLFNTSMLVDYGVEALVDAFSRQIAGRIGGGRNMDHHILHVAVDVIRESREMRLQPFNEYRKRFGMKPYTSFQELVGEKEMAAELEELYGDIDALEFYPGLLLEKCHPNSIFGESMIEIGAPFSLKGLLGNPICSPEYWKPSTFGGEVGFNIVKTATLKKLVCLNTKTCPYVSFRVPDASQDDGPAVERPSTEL

Target: Prostaglandin G/H synthase 1 (Homo sapiens, UniProt P23219)
Experiment: Inhibition of COX1 in human whole blood
Type: functional, tissue-based

## C[C@H](C(=O)O)c1ccc(-c2ccccc2)c(F)c1 [ESFLURBIPROFEN]
  IC50: 2 µM

## C[C@@H](C(=O)O)c1ccc(-c2ccccc2)c(F)c1 [TARENFLURBIL]
  IC50: 44 µM
